Laboratory results: ChEMBL document CHEMBL3351789, “Triazolopyridines as selective JAK1 inhibitors: from hit identification to GLPG0634” (J Med Chem, 2014)

By UniProt entry, the sequences of proteins in these tests, tags left out. Where a name states a change or a piece, a line headed by the entry shows the natural chain unless it says otherwise.
UniProt P23458: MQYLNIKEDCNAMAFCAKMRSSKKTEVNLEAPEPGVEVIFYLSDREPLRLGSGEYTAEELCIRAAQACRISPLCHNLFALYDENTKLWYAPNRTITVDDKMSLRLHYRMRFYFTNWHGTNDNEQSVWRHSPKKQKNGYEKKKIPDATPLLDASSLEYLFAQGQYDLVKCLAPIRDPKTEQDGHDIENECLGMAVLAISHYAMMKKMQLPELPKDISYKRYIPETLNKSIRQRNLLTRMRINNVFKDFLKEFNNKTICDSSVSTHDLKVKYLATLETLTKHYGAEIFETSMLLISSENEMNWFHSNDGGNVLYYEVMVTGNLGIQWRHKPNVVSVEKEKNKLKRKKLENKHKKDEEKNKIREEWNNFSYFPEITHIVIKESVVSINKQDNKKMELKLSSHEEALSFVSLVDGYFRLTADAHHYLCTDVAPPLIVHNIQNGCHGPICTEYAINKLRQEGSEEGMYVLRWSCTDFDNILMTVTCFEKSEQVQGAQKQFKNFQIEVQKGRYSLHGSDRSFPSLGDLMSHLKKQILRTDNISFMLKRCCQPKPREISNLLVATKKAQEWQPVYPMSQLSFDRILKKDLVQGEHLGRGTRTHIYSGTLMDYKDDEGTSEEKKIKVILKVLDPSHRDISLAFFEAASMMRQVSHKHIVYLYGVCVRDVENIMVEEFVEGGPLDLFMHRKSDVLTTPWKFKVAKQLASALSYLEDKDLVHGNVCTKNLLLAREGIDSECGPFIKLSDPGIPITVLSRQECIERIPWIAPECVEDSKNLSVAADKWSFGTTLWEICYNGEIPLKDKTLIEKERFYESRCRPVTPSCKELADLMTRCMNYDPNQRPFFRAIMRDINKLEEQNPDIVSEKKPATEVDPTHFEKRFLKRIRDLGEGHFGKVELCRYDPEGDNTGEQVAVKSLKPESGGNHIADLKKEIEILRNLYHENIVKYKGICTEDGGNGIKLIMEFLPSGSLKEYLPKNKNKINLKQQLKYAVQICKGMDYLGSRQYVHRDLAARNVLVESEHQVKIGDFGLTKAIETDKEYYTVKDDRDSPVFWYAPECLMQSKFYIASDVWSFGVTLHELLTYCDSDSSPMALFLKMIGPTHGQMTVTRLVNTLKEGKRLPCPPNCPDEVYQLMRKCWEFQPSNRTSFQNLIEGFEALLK

Key:
[1] = target: T1, Tyrosine-protein kinase JAK1 (Homo sapiens, UniProt P23458); assay: Inhibition of JAK1 in human whole blood assessed as inhibition of IL-6-induced pSTAT1
[2] = target: T1, Tyrosine-protein kinase JAK1; assay: Inhibition of human recombinant JAK1

- IC50 [1]: 5590 nM
- IC50 [2]: 92 nM
SMILES: O=C(Nc1nc2cccc(-c3ccc(CN4CCOCC4)cc3)n2n1)C1CC1
